Source: patent publication US6649595B2, “Regulation of biological events using novel compounds” (ARIAD Gene Therapeutics, Inc., priority 1995, dated 2003)

By UniProt entry, the sequences of proteins in these tests, tags left out.
UniProt P62942, whole entry: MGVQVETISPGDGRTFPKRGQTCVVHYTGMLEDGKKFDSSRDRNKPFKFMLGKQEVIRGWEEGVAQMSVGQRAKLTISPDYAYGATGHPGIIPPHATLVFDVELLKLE

Molecular target: T1, FKBPwt (Homo sapiens, UniProt P62942)
T1 construct: made in house
Experiment: Competitive fluorescence polarization (FP) binding assay of rapalogs to FKBP
Settings: =IC50/IC50 of rapamycin; C24 analogs, Table 4

fold loss in affinity (vs rapamycin): 616
Structure (SMILES): CON=C1CC(C(C)CC2CCC(O)C(OC)C2)OC(=O)C2CCCCN2C(=O)C(=O)C2(O)OC(CCC2C)CC(OC)C(C)=CC=CC=CC(C)CC(C)C(=O)C(OC)C(O)C(C)=CC1C (single isomer, unassigned) [Compound 5, Rapamycin (E and Z)-24-(O-methyloxime)]
